Patent US11292791B2
Like-named read-outs stand apart in the source and are kept apart here.

Molecular target: BRD4 (Homo sapiens (Human), UniProt O60885)
Experiment: HTRF biochemical assay for BRD4 activity
[1] = read-out: BRD4 IC50 (μM gmean), HTRF TR-FRET
[2] = read-out: BRD4 IC50 (μM gmean), HTRF (TR-FRET) biochemical assay

Question: For `COC(=O)N1c2ccc3c(nc(C(O)c4cc5ccoc5cn4)n3C3CCCC(C(=O)O)C3)c2CC[C@@H]1C` (some centres unmarked), which IC50 [1] is on record?
Answer: Its IC50 is 0.1 to 1 µM.

Question: How did the IC50 [1] turn out when `COC(=O)N1c2ccc3c(nc(Cc4cncc(OC(F)F)c4)n3[C@@H]3CCC[C@@H](C(=O)O)C3)c2CC[C@@H]1C` was run?
Answer: Its IC50 is 1 to 1000 µM.

Question: For `COC(=O)N1c2ccc3c(nc(Cn4cccn4)n3CCN3CCOCC3)c2CC[C@@H]1C`, which IC50 [2] is on record?
Answer: The IC50 was 1 to 1000 µM.

Question: For `COC(=O)N1c2ccc3c(nc(Nc4ccn(CC(C)(C)O)n4)n3[C@H]3CC[C@H](C(=O)O)CC3)c2CC[C@@H]1C`, which IC50 (read-out: BRD4 IC50 (μM gmean)) is on record?
Answer: Its IC50 is 1 to 1000 µM.

Question: For `COC(=O)N1c2ccc3c(nc(Nc4cccc(F)c4)n3[C@H]3CC[C@H](C(=O)O)CC3)c2CC[C@@H]1C`, which IC50 (read-out: BRD4 IC50 (μM gmean)) is on record?
Answer: The IC50 was 0.1 to 1 µM.

Question: Which IC50 [1] does the source give for `COC(=O)N1c2ccc3c(nc(Cc4cc(F)c(OC)c(F)c4)n3[C@H]3CC[C@H](C(=O)O)CC3)c2CC[C@@H]1C` here?
Answer: Its IC50 is 1 to 1000 µM.

Question: With `COC(=O)N1c2ccc3c(nc(N(C)c4ccc(OC)cc4)n3[C@H]3CC[C@H](C(=O)O)CC3)c2CC[C@@H]1C` as the compound, how does the IC50 [1] read?
Answer: The IC50 was 0.1 to 1 µM.

Question: Which IC50 [1] does the source give for `COC(=O)N1c2ccc3c(nc(N(C)c4cccc(F)c4)n3[C@@H]3CCC[C@@H](C(=O)O)C3)c2CC[C@@H]1C` here?
Answer: Its IC50 is 0.1 to 1 µM.

Question: How did the IC50 [1] turn out when `COC(=O)N1c2ccc3c(nc(Cc4ccc(Cl)cc4)n3[C@@H]3CCC[C@@H](C(=O)O)C3)c2CC[C@@H]1C` was run?
Answer: Its IC50 is 1 to 1000 µM.

Question: How did the IC50 [2] turn out when `COC(=O)N1c2ccc3c(nc(Cn4ccccc4=O)n3CCN3CCOCC3)c2CC[C@@H]1C` was run?
Answer: The IC50 was 1 to 1000 µM.

Question: With `COC(=O)N1c2ccc3c(nc(Nc4ccc(F)c(F)c4)n3[C@@H]3CCC[C@@H](C(=O)O)C3)c2CC[C@@H]1C` as the compound, how does the IC50 (read-out: BRD4 IC50 (μM gmean)) read?
Answer: The IC50 was 0.1 to 1 µM.
